The text below walks through data of US20130029967A1, “Fused Imidazo [3,2 - D] Pyrazines as P13 Kinase Inhibitors” (Centro Nacional de Investigaciones Oncologicas (CNIO), priority 2009, published 2013).

By UniProt entry, the sequences of proteins in these tests, tags left out.
UniProt P42336, whole entry: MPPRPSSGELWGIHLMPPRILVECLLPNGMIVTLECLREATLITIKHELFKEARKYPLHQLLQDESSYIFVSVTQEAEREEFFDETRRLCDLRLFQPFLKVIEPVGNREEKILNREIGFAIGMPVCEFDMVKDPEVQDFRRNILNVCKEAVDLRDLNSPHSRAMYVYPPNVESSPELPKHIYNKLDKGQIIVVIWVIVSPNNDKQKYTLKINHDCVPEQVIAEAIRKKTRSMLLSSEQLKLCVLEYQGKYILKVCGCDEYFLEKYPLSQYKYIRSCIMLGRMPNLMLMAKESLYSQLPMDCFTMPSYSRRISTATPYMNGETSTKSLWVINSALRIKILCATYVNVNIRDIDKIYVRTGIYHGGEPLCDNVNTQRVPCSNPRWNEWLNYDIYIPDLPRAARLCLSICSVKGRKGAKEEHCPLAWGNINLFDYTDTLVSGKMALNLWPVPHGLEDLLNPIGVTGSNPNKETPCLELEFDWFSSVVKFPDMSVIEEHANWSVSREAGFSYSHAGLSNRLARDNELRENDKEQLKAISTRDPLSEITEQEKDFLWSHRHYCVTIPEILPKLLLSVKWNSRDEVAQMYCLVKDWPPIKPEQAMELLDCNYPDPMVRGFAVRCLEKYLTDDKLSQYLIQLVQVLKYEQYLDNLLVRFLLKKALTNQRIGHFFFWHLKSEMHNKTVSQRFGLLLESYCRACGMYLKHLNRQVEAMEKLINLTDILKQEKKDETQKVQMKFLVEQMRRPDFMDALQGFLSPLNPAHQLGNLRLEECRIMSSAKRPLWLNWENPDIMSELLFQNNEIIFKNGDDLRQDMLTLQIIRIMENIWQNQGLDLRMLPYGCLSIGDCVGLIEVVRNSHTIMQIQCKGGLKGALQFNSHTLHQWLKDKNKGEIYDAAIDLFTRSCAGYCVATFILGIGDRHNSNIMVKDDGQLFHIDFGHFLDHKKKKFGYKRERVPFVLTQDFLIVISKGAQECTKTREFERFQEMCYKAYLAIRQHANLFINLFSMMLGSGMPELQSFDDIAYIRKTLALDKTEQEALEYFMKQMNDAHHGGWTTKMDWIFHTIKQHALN
UniProt P27986, whole entry partner: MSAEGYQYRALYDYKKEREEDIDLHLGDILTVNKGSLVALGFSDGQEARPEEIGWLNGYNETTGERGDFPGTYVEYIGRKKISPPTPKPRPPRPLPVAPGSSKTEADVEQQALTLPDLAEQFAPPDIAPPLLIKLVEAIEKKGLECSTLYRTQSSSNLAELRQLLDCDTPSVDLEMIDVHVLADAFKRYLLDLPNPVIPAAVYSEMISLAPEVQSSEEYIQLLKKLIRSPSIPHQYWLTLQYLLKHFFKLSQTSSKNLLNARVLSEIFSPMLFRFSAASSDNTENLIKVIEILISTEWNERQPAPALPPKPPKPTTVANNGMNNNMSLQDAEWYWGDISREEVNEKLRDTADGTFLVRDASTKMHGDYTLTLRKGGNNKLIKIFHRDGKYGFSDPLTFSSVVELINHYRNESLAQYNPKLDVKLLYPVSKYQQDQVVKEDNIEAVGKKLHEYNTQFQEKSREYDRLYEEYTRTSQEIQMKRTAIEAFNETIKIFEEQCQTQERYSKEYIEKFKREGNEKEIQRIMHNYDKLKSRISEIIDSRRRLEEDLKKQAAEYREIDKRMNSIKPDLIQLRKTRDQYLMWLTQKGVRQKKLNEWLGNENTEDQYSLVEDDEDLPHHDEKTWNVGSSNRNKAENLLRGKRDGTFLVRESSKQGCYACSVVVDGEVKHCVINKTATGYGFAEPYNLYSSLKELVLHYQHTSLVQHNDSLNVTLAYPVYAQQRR

SMILES strings stand for the structures. Where two headings read alike, the source gives them in different places.

The target of the experiment is PI3K (p110α/p85α) (Homo sapiens, UniProt P42336). In words: PI3K activity assay (ADP Hunter Plus). It counts as biochemical. As to conditions: PI3Kα.

One may read the IC50 as the concentration that inhibits the measured activity by half.

Regarding `c1cncc(-c2cn3c4c(nc3c(N3CCOCC3)n2)CCNC4)c1`, the concentration for half-maximal inhibition (IC50) reads like this: (read-out: PI3K α IC50 (semi-quantitative), class symbols) less than 500 nM; (read-out: PI3K α IC50, quantitative results) 427 nM.
